# AlphaSeq binding of Ab-14 light chain variants to a spike HR2 peptide

The target is the same throughout: PDVDLGDISGINAS, from the HR2 region of SARS-CoV-2 spike.

Each scFv is VH, three GGGGS repeats, VL, as in the parent Ab-14, and differs from it in the CDRs of the light chain only.
VH: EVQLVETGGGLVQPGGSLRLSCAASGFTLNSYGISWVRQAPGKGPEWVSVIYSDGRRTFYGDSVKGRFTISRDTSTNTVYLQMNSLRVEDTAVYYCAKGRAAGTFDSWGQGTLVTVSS
VL: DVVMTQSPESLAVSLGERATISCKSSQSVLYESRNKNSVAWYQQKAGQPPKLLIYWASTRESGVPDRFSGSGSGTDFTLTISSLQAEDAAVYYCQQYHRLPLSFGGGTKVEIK

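The parent was found by panning a naive human phage display library on the peptide. The variants were designed computationally from a first round of random CDR variants and then made and measured. Their group label is 14L_GP_HC (GP: Gaussian process model; HC: hill climbing; a sequence that several methods proposed may carry one label only). The assay is AlphaSeq: two haploid yeast populations carry antibody and antigen on their surface. Mating (16 h, 30 °C) was followed by selection of diploids and sequencing of their barcodes. The ratio of observed to expected reads was calibrated, replicate by replicate, on BCL2-family standards whose Kd was known from biolayer interferometry. There are six technical replicates.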

Changes read parent residue, position, new residue, counted from the first residue of the VL shown.
Values are log10 of the apparent Kd in nM; lower means stronger binding.
A mean of the replicates is given; it leaves out those without a signal.
Where no diploid with the target was found in that replicate, the entry reads "n.d.": below detection, most likely a poor binder, though not proof of it.
In the paper, a design with two or fewer of six values counts as a poor binder.
Three control strains display no target. For all light chain designs, 4% of the pairings with them gave a signal, with a median of 2.64 and one signal in twenty below 1.59, so weak values seen in few replicates may be background. For each scFv, signals with the empty controls are counted beside the result, with their mean in brackets.
The parent sequence was in this pool as ten entries: three were never detected, three once, and four in most replicates, with averages from 0.34 to 2.37.
The range of this assay differs from that of the first round, and the authors advise against merging the two.

| changes | log10 Kd (nM) by replicate | log10 Kd (nM), mean | signal with controls |
|---|---|---|---|
| S25L S26P S28G W56G T59V | -0.15 / -0.28 / -0.40 / -0.30 / -0.43 / -0.24 | -0.30 | 1 of 18 (2.13) |
| S28F V29Y W56G | 0.80 / 0.41 / 0.70 / 0.34 / 0.42 / 0.33 | 0.50 | 1 of 18 (2.22) |
| S25L S26E V29I L30T W56N | -0.01 / -0.12 / -0.36 / -0.55 / -0.47 / -0.23 | -0.29 | 1 of 18 (3.07) |
| Q27I V29Y R34E N37E W56E T59Q | 0.77 / 1.01 / 0.29 / 1.00 / 0.89 / 1.51 | 0.91 | 0 of 18 |
| Q27N V29Y R34M W56N A57G | 0.47 / 0.30 / 0.56 / 0.35 / 0.59 / 0.47 | 0.46 | 0 of 18 |
| S25Q S28L V29K W56D | 0.12 / -0.29 / 0.04 / -0.51 / -0.18 / 0.09 | -0.12 | 0 of 18 |
| K24H W56N A57G | 0.55 / 0.60 / 0.96 / 0.72 / 0.49 / 0.50 | 0.64 | 0 of 18 |
| V29G R34G W56H | 0.61 / 0.62 / 0.61 / 0.25 / 0.24 / 0.58 | 0.48 | 4 of 18 (3.30) |
| S25L S26P W56H S62D Q95K | -0.16 / -0.02 / -0.45 / 0.19 / -0.41 / 0.10 | -0.13 | 0 of 18 |
| S26Y Q27I V29F W56E | 0.63 / 0.70 / 0.20 / 0.31 / 0.28 / 0.44 | 0.42 | 1 of 18 (2.71) |
| K24F S25L S26L K36F W56H S62D | 0.51 / 0.23 / 0.03 / 0.07 / 0.28 / 0.45 | 0.26 | 0 of 18 |
| Q27W Y31F W56D E61M | 0.59 / 0.56 / 0.31 / 0.21 / 0.53 / 0.22 | 0.40 | 1 of 18 (2.55) |
| S26L V29W W56H S62D R99Q | -0.24 / 0.00 / -0.30 / -0.34 / -0.32 / -0.01 | -0.20 | 0 of 18 |
| S26L Q27A V29W W56H S62Q | 0.64 / 1.10 / 0.66 / 0.81 / 0.61 / 0.57 | 0.73 | 0 of 18 |
| S26L V29M W56H S62D R99Q | 0.38 / 0.36 / 0.26 / 0.16 / 0.16 / 0.50 | 0.30 | 0 of 18 |
| S25L S26M N35D W56H S62D | 0.78 / 0.58 / 0.62 / 0.29 / 0.47 / 0.64 | 0.56 | 0 of 18 |
| V29E Y31G W56D H98W | -0.06 / -0.14 / -0.11 / -0.02 / -0.22 / -0.03 | -0.10 | 1 of 18 (2.18) |
| Y31G S33P W56D | 0.58 / 0.60 / 0.43 / 0.22 / 0.18 / 0.50 | 0.42 | 2 of 18 (3.14) |
| Q27F Y31F W56D | 0.80 / 0.52 / 0.47 / 0.84 / 0.40 / 0.61 | 0.61 | 0 of 18 |
| S25L S26P Q27N V29T N35M | 0.99 / 0.41 / 0.81 / 0.40 / 0.77 / 0.80 | 0.70 | 1 of 18 (2.55) |
| S25L S26R V29T K36Q W56H | 0.25 / -0.01 / -0.02 / 0.29 / -0.19 / 0.01 | 0.05 | 1 of 18 (2.56) |
| S25L R34M W56E | 1.29 / 0.77 / 0.39 / 0.67 / 0.41 / 0.37 | 0.65 | 0 of 18 |
| V29Q K36F W56H S62D | 0.35 / 0.39 / 0.37 / 0.13 / 0.26 / 0.64 | 0.36 | 0 of 18 |
| S25L S26Q Q27M V29T W56N | -0.41 / -0.45 / -0.60 / -0.78 / -0.55 / -0.41 | -0.53 | 2 of 18 (4.11) |
| S25Q Y31M K36C W56D H98E | -0.06 / 0.13 / 0.05 / -0.23 / 0.17 / 0.18 | 0.04 | 0 of 18 |
| S25I V29F W56G Q96E | 0.34 / 0.11 / -0.02 / -0.04 / -0.04 / 0.18 | 0.09 | 1 of 18 (3.38) |
| S28G L30P W56G | -0.27 / -0.12 / -0.26 / -0.29 / -0.16 / 0.22 | -0.15 | 0 of 18 |
| K24H S25L Q27W S28D W56N | -0.14 / -0.29 / -0.35 / -0.26 / -0.36 / -0.13 | -0.25 | 0 of 18 |
| S25L S26C W56N S62D | 0.28 / 0.03 / 0.04 / 0.10 / 0.04 / 0.40 | 0.15 | 1 of 18 (2.82) |
| S25L V29T K36P | 0.60 / 0.38 / 0.91 / 0.66 / 0.66 / 0.79 | 0.67 | 1 of 18 (2.41) |
| S25F Q27D Y31L N35T W56E | -0.21 / -0.05 / -0.30 / -0.26 / -0.36 / -0.09 | -0.21 | 3 of 18 (2.65) |
| S25Q R34V W56D S62D | 0.43 / 0.59 / 0.48 / 0.13 / 0.17 / 0.37 | 0.36 | 0 of 18 |
| Y31G S33Q W56D A57K | -0.14 / -0.06 / 0.11 / -0.30 / 0.01 / -0.07 | -0.07 | 0 of 18 |
| Q27I V29Y E32G N35M W56E | 0.27 / 0.12 / 0.06 / 0.07 / 0.06 / 0.03 | 0.10 | 1 of 18 (3.67) |
| S25L S26R V29T W56Q S103I | 0.38 / 0.24 / 0.27 / 0.01 / 0.08 / 0.56 | 0.25 | 2 of 18 (2.71) |
| Q27E S28V R34H W56N E61M | 0.44 / 0.45 / 0.29 / 0.48 / 0.53 / 0.62 | 0.47 | 2 of 18 (2.21) |
| S25F S28K S33E N35T W56N | n.d. / n.d. / n.d. / n.d. / n.d. / n.d. | n.d. | 0 of 18 |
| S25V V29W W56G T59S | -0.32 / -0.43 / -0.09 / -0.39 / -0.48 / -0.31 | -0.34 | 1 of 18 (3.11) |
| S25L S38N W56H S62D | -0.25 / -0.20 / -0.67 / -0.54 / -0.57 / -0.40 | -0.44 | 2 of 18 (3.34) |
| S26P V29Q K36F W56N S62D | 0.16 / -0.15 / -0.20 / -0.24 / -0.24 / 0.06 | -0.10 | 0 of 18 |
| S25L N35D W56H S62D | -0.17 / -0.32 / -0.41 / -0.34 / -0.37 / -0.03 | -0.27 | 1 of 18 (2.52) |
| Q27I V29Y K36A W56E S62Q | 0.36 / 0.13 / -0.30 / 0.02 / -0.06 / 0.17 | 0.05 | 0 of 18 |
| K24H Q27P K36L W56N | 0.35 / 0.33 / 0.09 / 0.26 / 0.31 / 0.46 | 0.30 | 1 of 18 (2.11) |
| K24H L30E W56N | 0.65 / 0.19 / 0.72 / 0.05 / -0.21 / 0.02 | 0.24 | 0 of 18 |
| Q27I V29H W56A | -0.03 / -0.13 / 0.07 / -0.01 / -0.10 / -0.05 | -0.04 | 0 of 18 |
| Q27W Y31G N35W W56D E61S | 0.03 / 0.19 / -0.05 / -0.15 / -0.19 / 0.25 | 0.01 | 0 of 18 |
| K24H Q27P S33D W56N S103Q | -0.01 / -0.07 / -0.16 / -0.38 / -0.25 / -0.01 | -0.15 | 0 of 18 |

The first 5 entries again:

{"changes": "S25L S26P S28G W56G T59V", "log10 Kd (nM) by replicate": "-0.15 / -0.28 / -0.40 / -0.30 / -0.43 / -0.24", "log10 Kd (nM), mean": "-0.30", "signal with controls": "1 of 18 (2.13)"}
{"changes": "S28F V29Y W56G", "log10 Kd (nM) by replicate": "0.80 / 0.41 / 0.70 / 0.34 / 0.42 / 0.33", "log10 Kd (nM), mean": "0.50", "signal with controls": "1 of 18 (2.22)"}
{"changes": "S25L S26E V29I L30T W56N", "log10 Kd (nM) by replicate": "-0.01 / -0.12 / -0.36 / -0.55 / -0.47 / -0.23", "log10 Kd (nM), mean": "-0.29", "signal with controls": "1 of 18 (3.07)"}
{"changes": "Q27I V29Y R34E N37E W56E T59Q", "log10 Kd (nM) by replicate": "0.77 / 1.01 / 0.29 / 1.00 / 0.89 / 1.51", "log10 Kd (nM), mean": "0.91", "signal with controls": "0 of 18"}
{"changes": "Q27N V29Y R34M W56N A57G", "log10 Kd (nM) by replicate": "0.47 / 0.30 / 0.56 / 0.35 / 0.59 / 0.47", "log10 Kd (nM), mean": "0.46", "signal with controls": "0 of 18"}

Reference: Li et al. 2023, doi:10.1038/s41467-023-39022-2. File: FLAb, binding data.